Measured values taken from paper doi:10.1101/2023.02.27.530254, “Large library docking for cannabinoid-1 receptor agonists with reduced side effects” (bioRxiv, 2024).
Where two headings read alike, the source gives them in different places.

Sequences of proteins named here, by UniProt entry; tags and fusion partners are left off.
UniProt P21554, whole entry: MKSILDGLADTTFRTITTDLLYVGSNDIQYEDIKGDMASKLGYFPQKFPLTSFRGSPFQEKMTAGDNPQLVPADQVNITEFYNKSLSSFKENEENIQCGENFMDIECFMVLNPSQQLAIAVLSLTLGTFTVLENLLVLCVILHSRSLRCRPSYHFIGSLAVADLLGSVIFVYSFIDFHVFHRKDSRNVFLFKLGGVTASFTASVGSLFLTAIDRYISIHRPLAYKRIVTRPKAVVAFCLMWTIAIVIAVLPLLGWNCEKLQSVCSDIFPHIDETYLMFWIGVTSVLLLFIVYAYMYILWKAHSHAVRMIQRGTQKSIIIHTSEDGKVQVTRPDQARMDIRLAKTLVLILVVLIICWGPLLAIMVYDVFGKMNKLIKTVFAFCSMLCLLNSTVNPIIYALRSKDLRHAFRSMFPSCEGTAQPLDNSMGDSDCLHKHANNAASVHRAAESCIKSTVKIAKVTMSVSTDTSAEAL
UniProt P20272, whole entry: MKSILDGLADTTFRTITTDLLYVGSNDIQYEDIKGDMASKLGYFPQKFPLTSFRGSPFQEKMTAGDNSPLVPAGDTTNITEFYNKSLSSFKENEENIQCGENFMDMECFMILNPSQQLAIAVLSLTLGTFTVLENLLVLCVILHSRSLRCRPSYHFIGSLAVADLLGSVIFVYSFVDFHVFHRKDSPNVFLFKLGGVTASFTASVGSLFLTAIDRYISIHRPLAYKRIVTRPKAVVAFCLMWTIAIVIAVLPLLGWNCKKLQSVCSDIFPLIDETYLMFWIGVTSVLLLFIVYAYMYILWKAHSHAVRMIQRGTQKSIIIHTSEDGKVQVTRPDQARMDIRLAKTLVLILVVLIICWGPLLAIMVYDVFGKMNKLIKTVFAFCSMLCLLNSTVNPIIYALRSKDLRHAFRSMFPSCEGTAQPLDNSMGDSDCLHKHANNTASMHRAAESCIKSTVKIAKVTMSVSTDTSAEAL

What was measured:
[1] = target: hCB1 (Homo sapiens, UniProt P21554); assay: bioSens-All ebBRET effector biosensor signaling profiling, HEK293; format: cell-based
[2] = target: CB1 (Rattus norvegicus, UniProt P20272); assay: Radioligand competition binding with [3H]-CP-55,940, rat brain membranes

In the case of Cc1cc(C(=O)NC(C)(C(=O)O)c2cccs2)nn1-c1cccc(C(F)(F)F)c1 (centres unmarked), the “hCB1 Gi1 pEC50 [95% CI]” value ([1]; Gi1 sensor) is reported as 5.2 [5.1 – 5.2], the hCB1 Gi1 Emax [95% CI] ([1]; Gi1 sensor, normalized to CP-55,940) is reported as 108% and the “hCB1 GoB pEC50 [95% CI]” value ([1]; GoB sensor) is reported as 5.1 [5.0 – 5.2]. The hCB1 GoB Emax [95% CI] ([1]; GoB sensor, normalized to CP-55,940) was 115%, the “hCB1 Gz pEC50 [95% CI]” value ([1]; Gz sensor) was 5.6 [5.3 – 6.0] and the hCB1 Gz Emax [95% CI] ([1]; Gz sensor, normalized to CP-55,940) was 114%. The EC50 ([1]; read-out: hCB1 Gi1 EC50 [95% CI], Gi1 sensor) was 6.52 µM, the EC50 ([1]; read-out: hCB1 GoB EC50 [95% CI], GoB sensor) was 7.99 µM and the EC50 ([1]; read-out: hCB1 Gz EC50 [95% CI], Gz sensor) was 2.43 µM. For the same compound, the Ki [2] was 5 µM, the “rCB1 binding pKi [95% CI]” value ([2]; [3H]-CP-55,940 competition, rat brain membranes) was 5.3 [5.1 – 5.4] and the “rCB1 binding Emax [SEM]” value ([2]; maximal radioligand displacement) was 103%. The Ki ([2]; read-out: rCB1 binding Ki [95% CI], [3H]-CP-55,940 competition, rat brain membranes) was 5.33 µM and the “% 1H-CP-55,940 displacement (mean) from single point screen” value ([2]; screens at 10 μM (white cells), 1 μM (orange) or 300 nM (green), cell colours not visible) was 64.38%.
